Earlier results as cited in patent publication US20110262395A1, “SENSORY RECEPTORS FOR CHRONIC FATIGUE AND PAIN AND USES THEREOF” (UNIVERSITY OF UTAH RESEARCH FOUNDATION, priority 2008, published 2011).

Amino acid sequences for entries named in this document (tags omitted). A change or cut given only in a name is not applied to a line headed by its entry.
UniProt Q93086: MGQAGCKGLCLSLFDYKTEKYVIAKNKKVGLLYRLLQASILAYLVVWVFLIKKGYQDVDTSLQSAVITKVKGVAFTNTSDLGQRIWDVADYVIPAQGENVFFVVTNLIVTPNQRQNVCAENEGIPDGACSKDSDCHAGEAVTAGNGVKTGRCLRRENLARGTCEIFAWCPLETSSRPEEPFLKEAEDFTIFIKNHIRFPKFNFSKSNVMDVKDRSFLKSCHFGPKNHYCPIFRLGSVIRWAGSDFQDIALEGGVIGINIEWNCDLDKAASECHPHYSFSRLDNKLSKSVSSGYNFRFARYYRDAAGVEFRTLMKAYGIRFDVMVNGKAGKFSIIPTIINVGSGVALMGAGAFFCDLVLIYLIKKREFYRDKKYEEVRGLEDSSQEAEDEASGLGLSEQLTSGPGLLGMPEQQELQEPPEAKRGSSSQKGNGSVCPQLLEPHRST

Assays:
P2X5 receptors = P2X5 receptors (Homo sapiens, UniProt Q93086); details: cited from earlier work
mouse P2X4 receptors = molecular target: T1, mouse P2X4 receptors (Mus musculus, UniProt Q9JJX6); details: cited from earlier work
T1 sequence (Q9JJX6 1-388): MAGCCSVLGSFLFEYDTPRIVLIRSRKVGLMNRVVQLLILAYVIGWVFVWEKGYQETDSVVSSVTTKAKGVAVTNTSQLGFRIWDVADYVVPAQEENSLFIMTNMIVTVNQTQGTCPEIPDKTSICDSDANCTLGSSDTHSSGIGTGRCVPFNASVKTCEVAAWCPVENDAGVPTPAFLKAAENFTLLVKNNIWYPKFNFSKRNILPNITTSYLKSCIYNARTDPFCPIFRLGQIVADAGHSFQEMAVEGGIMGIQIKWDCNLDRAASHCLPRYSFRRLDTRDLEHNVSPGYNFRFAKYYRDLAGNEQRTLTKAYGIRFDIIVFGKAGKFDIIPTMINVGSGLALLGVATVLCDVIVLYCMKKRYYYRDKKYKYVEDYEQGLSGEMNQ

For `Cc1nc(N=Nc2ccc(S(=O)(=O)O)cc2S(=O)(=O)O)c(COP(=O)(O)O)c(C=O)c1O` [PPADS], the IC50 (P2X5 receptors) is listed as 0.2 µM and the IC50 (mouse P2X4 receptors) is listed as 25 µM.
